# Source: ChEMBL document CHEMBL1128460, “Design, synthesis, and structure-activity relationships of a new series of alpha-adrenergic agonists: spiro[(1,3-diazacyclopent-1-ene)-5,2'-(1',2',3',4'- tetrahydronaphthalene)]” (J Med Chem, 1995)
# What was measured:
# [1] = Ratio of C20 obtained in the absence or presence of [C20 ( 0.1 mg of prazosin ) / C20 (control)]; type: functional
# Method in brief: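 Pithed rats pretreated with tertatolol (100 mg/kg), then 10 min later with prazosin (100 µg/kg). Cumulative iv agonist doses given another 10 min later at 20 s intervals. Arterial pressure recorded, C20 (dose giving +20 mmHg) determined. Ratio calculated as C20(prazosin)/C20(control); 3–6 determinations.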
# [2] = Ratio of C20 obtained in the absence or presence of [C20 (1 mg of yohimbine.) / C20 (control)]; type: functional
# Method in brief: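 Pithed rat arterial pressure assay with tertatolol (100 mg/kg) pretreatment, then yohimbine (1 mg/kg) 10 min later. Cumulative iv agonist doses given at 20 s intervals after a further 10 min, C20 (+20 mmHg dose) obtained. Ratio expressed as C20(yohimbine)/C20(control); 3–6 determinations.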
compound,measurement,setting,value
Cc1ccc2c(c1)CC1(CC2)CN=CN1 (configuration not stated),Ratio,[1],6.1
same,Ratio,[2],7.9
